# Reference: patent US7576115B2, “Heterocyclic compounds and thrombopoietin receptor activators” (Nissan Chemical Industries, Ltd., priority 2003, dated 2009)
# Sequences of proteins named here, by UniProt entry; tags and fusion partners are left off. Residues count along the entry.
# UniProt P40238, 26-635 limits assumed: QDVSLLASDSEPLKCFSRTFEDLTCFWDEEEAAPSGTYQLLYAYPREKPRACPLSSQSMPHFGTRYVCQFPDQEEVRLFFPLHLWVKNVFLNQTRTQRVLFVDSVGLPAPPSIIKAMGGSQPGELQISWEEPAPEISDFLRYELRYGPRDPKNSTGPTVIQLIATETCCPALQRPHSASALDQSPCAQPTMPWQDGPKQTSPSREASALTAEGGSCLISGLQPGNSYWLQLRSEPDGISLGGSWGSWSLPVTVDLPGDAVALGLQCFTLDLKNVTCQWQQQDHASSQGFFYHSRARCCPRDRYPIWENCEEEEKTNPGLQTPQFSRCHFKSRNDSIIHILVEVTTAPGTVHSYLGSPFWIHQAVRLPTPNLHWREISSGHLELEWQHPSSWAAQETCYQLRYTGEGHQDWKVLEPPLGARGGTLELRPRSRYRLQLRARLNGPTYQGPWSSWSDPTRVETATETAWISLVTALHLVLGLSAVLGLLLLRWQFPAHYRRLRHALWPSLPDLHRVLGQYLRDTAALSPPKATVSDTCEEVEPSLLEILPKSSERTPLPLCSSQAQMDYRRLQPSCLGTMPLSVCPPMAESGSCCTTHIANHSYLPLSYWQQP
# Target: thrombopoietin (TPO) receptor (Homo sapiens, UniProt P40238)
# Experiment: Stimulation of proliferation of TPO-dependent cell line UT7/EPO-mpl (WST-8)
# Settings: concentration that yields a growth rate corresponding to 50% of the growth of UT-7/EPO-mpl observed in the presence of 10 ng/ml TPO
# Procedure: The reactivity of the compound of Synthetic Example 3 of the present invention with thrombopoietin (TPO) receptor was assayed using a human leukemic cell line, UT7/EPO-mpl.
# UT7/EPO-mpl is a stable transformed cell line obtained by introducing into human leukemic cell line UT7/EPO a vector that induces expression of human TPO receptor (c-mp1) under control of a cytomegaloviral promoter by the method of Takatoku et al. (J. Biol. Chem., 272:7259-7263 (1997)). […] These two cell lines were subcultured in Iscove's modified Dulbecco's medium (IMDM; GIBCO) containing 10% fetal bovine serum (FBS; TRACE SCIENTIFIC, Thermo Electron or BioWest) using a CO2 incubator (5% CO2, 37° C.)
# The subcultured cells described above were washed twice with phosphate buffered saline (PBS) and suspended in IMDM containing 10% FBS at a cell density of 6×10^4 cells/ml. The cell suspension was transferred to a 96-well tissue culture plate (CORNING) in 100 μl aliquots. Then either TPO (PeproTech EC) or the compound of Synthetic Example 3 dissolved in dimethyl sulfoxide (DMSO) was diluted 83-fold with IMDM containing 10% FBS and added to the aforementioned cell suspension in 20 μl aliquots. The suspension was incubated in a CO2 incubator (5% Co2, 37° C.) for 4 days. Cell proliferation was assayed using WST-8 reagent (Kishida Chemical Co., Ltd.) according to instructions by the manufacturer. A 10 μl aliquot of 5 mM WST-8 reagent solution was added to each well of the tissue culture plate, and the plate was incubated at 37° C. for 4 h. The formazan pigment generated was detected by measuring the absorbance at 450 nm with a 96-well microplate reader (Nihon Molecular Devices, Spectramax 190).
# The compounds of the following Synthetic Examples were tested according to the method of Assay Example 1 to determine the concentration of each compound that yields a growth rate corresponding to 50% of the growth of human leukemic cell line UT-7/EPO-mpl observed in the presence of 10 ng/ml TPO (EC50).
row,SMILES,EC50 [ng/mL]
1,COC(=O)c1cccc(C(=O)NN=C(C)c2nn(C)c(-c3ccc(C(C)(C)C)cc3)c2O)c1,10.5
2,CC(C)(C)c1ccc(-c2scc(C=NNC(=S)Nc3ccc(C(=O)O)cc3)c2O)cc1,14
3,CC(=NNC(=O)c1ccc(C(=O)O)c([N+](=O)[O-])c1)c1nn(C)c(-c2ccc(Cl)cc2)c1O,3.3
4,CC(=NNC(=O)c1ccc(C(=O)O)cc1)c1nn(C)c(-c2ccc(Cl)c(Cl)c2)c1O,3.5
5,CC(=NNC(=S)Nc1ccc(C(=O)O)cc1)c1nn(Cc2ccccc2)c(-c2ccc(C(C)(C)C)cc2)c1O,3.7
6,CCCCCc1ccc(-c2c(O)c(C(C)=NNC(=O)c3ccc(C(=O)O)cc3)nn2C)cc1,7.8
7,CC(=NNC(=S)Nc1cccc(C(=O)O)c1)c1csc(-c2ccc(Cl)c(Cl)c2)c1O,3.5
8,CC(=NNC(=S)Nc1ccc(Cl)cc1OCCCC(=O)O)c1nn(C)c(-c2ccc(C(F)(F)F)cc2)c1O,3.9
9,CC(=NNC(=S)Nc1ccc(C(=O)O)c([N+](=O)[O-])c1)c1csc(-c2ccc(C(F)(F)F)cc2)c1O,4.7
10,C/C(=N\NC(=O)c1ccc(-c2nnn[nH]2)s1)c1csc(-c2ccc(OC(F)(F)F)cc2)c1O,2.9
11,CC(=NNC(=O)c1ccc2[nH]c(=S)[nH]c2c1)c1csc(-c2ccc(Cl)c(Cl)c2)c1O,6.0
12,C/C(=N\NC(=S)Nc1ccc(S(N)(=O)=O)cc1)c1csc(-c2ccc(Cl)cc2)c1O,3.4
13,CC(=NNC(=S)Nc1ccc(C(=O)O)c(Cl)c1)c1nn(C)c(-c2ccc(C(F)(F)F)cc2)c1O,4.7
14,CC(=NNC(=S)Nc1ccc(C(=O)O)cc1)c1nn(C)c(-c2ccc(C(F)(F)F)cc2)c1O,2.9
15,C/C(=N\NC(=O)c1ccc(-c2nnn[nH]2)cc1)c1csc(-c2ccc(Cl)c(Cl)c2)c1O,2.2
16,CCCCCc1ccc(-c2c(O)c(C(C)=NNC(=S)Nc3ccc(C(=O)O)cc3)nn2C)cc1,21.3
17,"CC(=NNC(=S)Nc1ccc(C(=O)O)cc1)c1nn(C)c(-c2ccc(Cl)c(Cl)c2)c1O [Synthetic Example 2, 4-{[(2-{1-[5-(3,4-dichlorophenyl)-4-hydroxy-1-methyl-1H-pyrazol-3-yl]ethylidene}hydrazino)carbonothioyl]amino}benzoic acid]",4.5
18,CC(C)C(=NNC(=O)c1ccc(C(=O)O)cc1)c1csc(-c2ccc(C(C)(C)C)cc2)c1O,5.8
19,CC(=NNC(=O)c1ccc(C(=O)N2CCN(C)CC2)c([N+](=O)[O-])c1)c1csc(-c2ccc(C(C)(C)C)cc2)c1O,4.2
20,CC(=NNC(=O)c1oncc1C)c1csc(-c2ccc(Cl)c(Cl)c2)c1O,13
21,CC(=NNC(=O)c1ccc(C(=O)O)cc1)c1nn(Cc2ccccc2)c(-c2ccc(C(C)(C)C)cc2)c1O,4.3
22,CC(=NNC(=S)Nc1ccc(C(=O)O)cc1)c1nn(C)c(-c2ccc(C)c(C)c2)c1O,5.9
23,CC(=NNC(=S)Nc1ccc(C(=O)O)cc1)c1nn(C)c(-c2ccc(C(C)(C)C)cc2)c1O,3.5
24,CCn1nc(C(C)=NNC(=S)Nc2ccc(C(=O)O)cc2)c(O)c1-c1ccc(C(C)(C)C)cc1,3.8
25,CC(=NNC(=O)c1ccc(C(=O)O)s1)c1nn(C)c(-c2ccc(Cl)c(Cl)c2)c1O,3.2
26,CC(=NNC(=O)c1cccc(C(=O)O)c1)c1nn(C)c(-c2ccc(C(C)(C)C)cc2)c1O,45.0
27,"CC(=NNC(=O)c1ccc(C(=O)O)cc1)c1nn(C)c(-c2ccc(C(C)(C)C)cc2)c1O [Synthetic Example 3, 4-[(2-{1-[5-(4-tert-butylphenyl)-4-hydroxy-1-methyl-1H-pyrazol-3-yl]ethylidene}hydrazino)carbonyl]benzoic acid]",2.7

# Same assay, conditions: concentration that yields a growth rate corresponding to 50% of the growth of UT-7/EPO-mpl observed in the presence of 10 ng/ml TPO; tested form: K salt
row,SMILES,EC50 [ng/mL]
1,CC(=NNC(=S)Nc1ccc(S(=O)(=O)O)cc1)c1csc(-c2ccc(Cl)c(Cl)c2)c1O,2.9
